Data on 16 molecules can be found in ChEMBL document CHEMBL1156873, “Pyrazolopyrimidines as highly potent and selective, ATP-competitive inhibitors of the mammalian target of rapamycin (mTOR): optimization of the 1-substituent” (Bioorg Med Chem Lett, 2010).

This experiment in a line: Selectivity ratio of IC50 for PI3Kalpha to IC50 for mTOR.
As to `CNC(=O)Nc1ccc(-c2nc(N3CC4CCC(C3)O4)c3cnn(CCN(C)C)c3n2)cc1`, the Ratio IC50 was 66. As for `CNC(=O)Nc1ccc(-c2nc(N3CC4CCC(C3)O4)c3cnn(C(C)C)c3n2)cc1`, the figure is 1950. Regarding `CNC(=O)Nc1ccc(-c2nc(N3CC4CCC(C3)O4)c3cnn(C4CCC5(CC4)OCCCO5)c3n2)cc1`, the Ratio IC50 was 305. On to `CNC(=O)Nc1ccc(-c2nc(N3CC4CCC(C3)O4)c3cnn([C@H]4CC[C@H](OC)CC4)c3n2)cc1`, for which the Ratio IC50 was 3080. For `O=C(Nc1ccncc1)Nc1ccc(-c2nc(N3CC4CCC(C3)O4)c3cnn(C4CCC5(CC4)OCCO5)c3n2)cc1`, the Ratio IC50 was 1830. As for `CNC(=O)Nc1ccc(-c2nc(N3CC4CCC(C3)O4)c3cnn(C4CCN(C(=O)OC(C)C)CC4)c3n2)cc1`, the figure is 10600; as for `O=C(NCCF)Nc1ccc(-c2nc(N3CC4CCC(C3)O4)c3cnn(C4CCC5(CC4)OCCO5)c3n2)cc1`, 23300; as for `CNC(=O)Nc1ccc(-c2nc(N3CC4CCC(C3)O4)c3cnn(C)c3n2)cc1`, 184. As for `O=C(Nc1ccc(-c2nc(N3CC4CCC(C3)O4)c3cnn(C4CCC5(CC4)OCCO5)c3n2)cc1)NC1CC1`, the figure is 54500; as for `CNC(=O)Nc1ccc(-c2nc(N3CC4CCC(C3)O4)c3cnn(CCO)c3n2)cc1`, 132.

On to `CCn1ncc2c(N3CC4CCC(C3)O4)nc(-c3ccc(NC(=O)NC)cc3)nc21`, for which the Ratio IC50 was 364.

In the case of `CCNC(=O)Nc1ccc(-c2nc(N3CC4CCC(C3)O4)c3cnn(C4CCC5(CC4)OCCO5)c3n2)cc1`, the Ratio IC50 is 17600. As for `O=C(Nc1ccc(-c2nc(N3CC4CCC(C3)O4)c3cnn(C4CCC5(CC4)OCCO5)c3n2)cc1)Nc1cccnc1`, the figure is 2250; as for `CNC(=O)Nc1ccc(-c2nc(N3CC4CCC(C3)O4)c3cnn(C4CCC(OC)(OC)CC4)c3n2)cc1`, 875; as for `O=C(Nc1ccccc1)Nc1ccc(-c2nc(N3CC4CCC(C3)O4)c3cnn(C4CCC5(CC4)OCCO5)c3n2)cc1`, 2210.

Take `CNC(=O)Nc1ccc(-c2nc(N3CC4CCC(C3)O4)c3cnn([C@H]4CC[C@@H](OC)CC4)c3n2)cc1`: the Ratio IC50 is 2140.
